Measured values taken from US6080739A (priority 1996, dated 2000).

Tested on: MCF7-ADR
Experiment: antimitotic activity on cultured breast tumour explants, resistant to adriamycin and vinblastin (MCF7-ADR)
Details: for MCF7-ADR/MCF7: ratio of IC50 resistant to normal cells; for IC50: read-out: IC50 MCF7-ADR, MCF7-ADR, resistant to both adriamycin and vinblastin

| SMILES | MCF7-ADR/MCF7 | IC50 |
| --- | --- | --- |
| COc1cc2c(c(OC)c1OC)-c1ccc(SC)c(=O)cc1C1=Nc3cc(C(C)(C)C)cc(C(C)(C)C)c3OC1C2 (stereo not drawn) [Compound IIa] | 3 | 0.052 µM |
| COc1cc2c(c(OC)c1OC)-c1ccc(SC)c(=O)cc1C(=O)CC2 [Compound Ia, Thiocolchicone] | 2.4 | 0.015 µM |
| COc1cc2c(c(OC)c1OC)-c1ccc(OC)c(=O)cc1C(=O)CC2 [Compound Ib, Colchicone] | 1.7 | 0.04 µM |
